# miR-122 sensor: miR-122 Renilla sensor signal increase in Huh7, primary screen, miR-122 inhibitor project, cell-based, single point, plate reader; actives 0.3% (n = 340,000); Huh7 miR-122 Renilla luciferase sensor, 48 h; neutral wells = 0, positive control = 100; activation (reporter increase), % at 12.5 µM;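 active = mean replicate activation score at least 90 and every replicate individually at or above 90; inconclusive = only one of the two criteria met; inactive = neither criterion met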;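 also: higher luciferase means less miR-122 activity so hits act as miR-122 inhibitors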
# UUG fidelity: alters start codon recognition fidelity in yeast. 350,000 tested, 0.13% active. activity score, % at 18.7 µM. S. cerevisiae UUG-firefly luciferase reporter, luminescence/redox ratio;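 active = replicate mean at a twofold rise or more, about +100% in these data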;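 also: firefly luciferase made from a UUG start codon reports start codon fidelity; reporter light over untreated wells divided by growth signal over untreated wells; some hits fall short of that in this replicate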
# LGR2 antag: inhibitors of bursicon-induced LGR2 CRE-luciferase signal, primary screen, cell-based, HEK293, CRE-luciferase reporter, bursicon stimulation | Drosophila bursicon receptor LGR2 (rickets) | inhibition, % at 9.99 µM | bursicon-stimulated, 4 h | AID 720647, 2013 | actives 0.35% (n = 380,000);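 active = drop in luminescence signal, shown as inhibition above about 50% in the replicate tests, limit read from the data, passing the limit was not always enough; inconclusive = probably only some replicates passing the limit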;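 also: agonist challenge used bursicon conditioned medium at about half maximal strength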
# EWS-Fli inh: EWS/Fli-driven NR0B1 reporter inhibitors, primary screen, A673 cells, NR0B1 luciferase, luminescence, MLPCN library; inhibition, % at 12.6 µM; actives 0.67% (n = 350,000); viability-normalised;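 active = mean inhibition of at least 50% after viability correction, with every replicate also passing that limit; inconclusive = mean reaches 50% but only one of two replicates passes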;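 also: firefly luciferase signal divided by Alamar Blue viability fluorescence both relative to DMSO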
# F508del corr: F508del CFTR correction, initial screen, CFBE line, single point | CFBE cells, YFP halide quenching; stimulated with forskolin plus potentiator P3; % fluorescence drop versus neutral controls | activity (quench increase), % at 7.58 µM | actives 0.36% (n = 350,000) | AID 720511, 2013;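 active = mean added fluorescence quench of at least 8% versus neutral control, with both replicates also reaching 8%; inconclusive = only one of the mean or replicate conditions met; inactive = mean below 8% and not both replicates reaching 8%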;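 also: cells transiently co-express mutant CFTR-F508del with the halide-sensitive YFP; corrector assay measuring rescue of mutant channel to the surface after 24 h compound exposure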
# PglD DTNB: C. jejuni PglD acetyltransferase inhibitors, primary screen, biochemical, DTNB colorimetric, single point; UDP-N-acetylbacillosamine N-acetyltransferase PglD (Campylobacter jejuni); purified PglD enzyme, DTNB colorimetric CoA detection; inhibition, % at 12.5 µM; actives 0.098% (n = 360,000); AID 602405, 2012; in the data active = inhibition above about 16%, passing the limit was not always enough; inconclusive = no clear call, values can overlap the other calls
# * = called active by the depositor; ? = inconclusive; . = no result given; [ ] = remark or other dose. Hits are enriched below; roughly 1.3% of the tested compounds scored in any of these assays.
# Codes – A = miR-122 sensor; B = UUG fidelity; C = LGR2 antag; D = EWS-Fli inh; E = F508del corr; F = PglD DTNB
1	CC(=Nc1ccccc1)C1=C(O)C(Cc2cccc(F)c2)NC1=O (configuration not stated)
  A: 158*	B: -11	C: -90	D: 40	E: -1	F: -4
2	CC(=Nc1ccccc1)C1=C(O)C(Cc2ccc(O)cc2)NC1=O (configuration not stated)
  A: .	B: .	C: -17	D: 33	E: 4	F: .
3	O=C(NCCc1ccc(Cl)cc1)c1ccc(OCC2CCCO2)cc1 (configuration not stated)
  A: -3	B: 5	C: -41	D: -61	E: 0	F: 1
4	CCN(CC)c1ccc(NC(=O)c2cnccn2)cc1S(=O)(=O)Nc1ccc(OC)cc1
  A: 123*	B: -7	C: 4	D: .	E: .	F: -3
5	Cc1ccc(C(=O)NC2CCCCCCC2)c(Cl)c1
  A: 7	B: -64	C: 80*	D: 56*	E: 1	F: 5
6	C=CC1c2cc(OC)c(OC)cc2CC(C)N1Cc1ccc(OC)cc1 (configuration not stated)
  A: .	B: -4	C: .	D: 56*	E: 18*	F: 6
7	C/C=C/c1ccc(C2[C@H]3CNC[C@@H]2N3Cc2ccc(OC)cc2)cc1 (some centres not stated)
  A: .	B: .	C: -9	D: 1	E: 2	F: .
8	CCCCCCCCCC[n+]1cccc2c3ccccc3ccc21
  A: .	B: .	C: 76*	D: 40	E: -8	F: .
9	Cc1ccc(NC(=O)c2cc3ccccc3oc2=N)cc1
  A: .	B: -16	C: 89*	D: 69*	E: 2	F: -1
10	Cc1ccc(NC(=O)c2cc(C)n(-c3cccc(C)c3)c2C)cc1
  A: 0	B: -20	C: -65	D: -97	E: -1	F: 1
11	Cc1cc(C(=O)Nc2ccc(Cl)cc2)c(C)n1-c1ccccc1
  A: 17	B: -81	C: 82*	D: 58*	E: 0	F: 2
12	Cc1ccc(NC(=O)c2cc(C)n(-c3ccccc3)c2C)cc1
  A: 12	B: -84	C: .	D: 69*	E: .	F: 10
13	N=c1oc2ccccc2cc1C(=O)Nc1ccc(F)cc1
  A: 2	B: 5	C: 9	D: 26	E: -1	F: -2
14	CCOC(=O)[C@@H](C)N1[C@@H](C)[C@H](c2ccccc2)Oc2ccc(Cl)cc2S1(=O)=O
  A: .	B: .	C: 5	D: 11	E: -1	F: .
15	COCC(=O)N1C[C@@H]2[C@H](c3ccccc31)[C@H](CO)N2C(=O)c1ccccc1F
  A: -21[16.7 µM]	B: 7	C: 8	D: 2	E: -2	F: 1
16	COc1cc(/C=N/NC(=O)c2cc(-c3ccccc3)sc2N)cc(OC)c1OC
  A: .	B: .	C: .	D: 0	E: 0	F: .
17	COc1ccc(CCNc2ncnc3c2oc2ccccc23)cc1OC
  A: -7	B: -17	C: 19	D: 7	E: 9.3*	F: -7
18	CC(C)Nc1nc(Nc2ccc(C#N)cc2)c2sccc2n1
  A: 1	B: -13	C: -11	D: 17	E: 8.1*	F: -5
19	O=C(c1ccc(NC(=S)Nc2ccc(F)cc2F)cc1)N1CCOCC1
  A: .	B: .	C: .	D: 3	E: 1	F: .
20	O=C(c1cc(-c2ccccc2Cl)nc2ccc(Br)cc12)N1CCN(c2ccccn2)CC1
  A: -9	B: -1	C: 68*	D: .	E: 1	F: 3
21	Cc1ccc(-c2nn(Cc3ccccc3)cc2C(=O)N2CCN(c3ccccn3)CC2)cc1
  A: 107*	B: -4	C: 13	D: 6	E: -4	F: -1
22	O=C(c1cn(Cc2ccccc2)nc1-c1ccc(Cl)cc1)N1CCN(c2ccccn2)CC1
  A: 120*	B: 6	C: 2	D: 12	E: 4	F: 4
23	Cc1ccc(-c2nn(-c3ccccc3)cc2C(=O)N2CCN(c3ccccn3)CC2)cc1
  A: .	B: .	C: -18	D: -11	E: 15*	F: .
24	CO[C@H]1CN(C)C(=O)c2cc(NC(=O)c3ccc(-c4ccccc4)cc3)ccc2OC[C@H](C)NC[C@H]1C
  A: .	B: 12	C: .	D: 22	E: -1	F: -3
25	COc1ccccc1N1CCN(C(=O)c2cn(Cc3ccccc3)nc2-c2cccnc2)CC1
  A: 18	B: -10	C: -12	D: -7	E: 2	F: 2

# Three of the entries above in order of the LGR2 antag value, smallest number first:
No.	Structure	miR-122 sensor	UUG fidelity	LGR2 antag	F508del corr	PglD DTNB
22	O=C(c1cn(Cc2ccccc2)nc1-c1ccc(Cl)cc1)N1CCN(c2ccccn2)CC1	120*	6	2	4	4
14	CCOC(=O)[C@@H](C)N1[C@@H](C)[C@H](c2ccccc2)Oc2ccc(Cl)cc2S1(=O)=O	.	.	5	-1	.
20	O=C(c1cc(-c2ccccc2Cl)nc2ccc(Br)cc12)N1CCN(c2ccccn2)CC1	-9	-1	68*	1	3

# The listing continues.
# Codes – A = miR-122 sensor; B = UUG fidelity; C = LGR2 antag; D = EWS-Fli inh; E = F508del corr; F = PglD DTNB
26	COc1cccc(N2CCN(C(=O)c3cn(Cc4ccccc4)nc3-c3cccnc3)CC2)c1
  A: 59	B: -13	C: 26	D: 57*	E: 15*	F: -1
27	O=C(Cc1ccccc1)N1C[C@H]2[C@@H](c3ccccc31)[C@@H](CO)N2C(=O)C1CCCCC1
  A: 200*[16.7 µM]	B: 37	C: -1	D: 2	E: 3	F: -1
28	COc1ccc(C(=O)N2C[C@@H]3[C@H](c4ccccc42)[C@H](CO)N3Cc2ccccc2Cl)cc1
  A: 194*[16.7 µM]	B: 28	C: 7	D: 8	E: 5	F: 0
29	O=C(C1CCCCC1)N1C[C@H]2[C@@H](c3ccccc31)[C@@H](CO)N2C(=O)c1ccccc1
  A: 260*[16.7 µM]	B: -12	C: 11	D: 2	E: 1	F: 5
30	Cc1c(Cl)cnc(NC(=O)COC(=O)C2CC2)c1Cl
  A: .	B: .	C: -1	D: 8	E: 2	F: .
31	CNc1ccc(/C=C2\COc3ccccc3C2=O)cc1[N+](=O)[O-]
  A: -10	B: -6	C: .	D: .	E: .	F: -10
32	O=C1/C(=C/c2ccccc2[N+](=O)[O-])COc2ccccc21
  A: 11	B: -11	C: 91*	D: 28	E: -9	F: -1
33	O=C(/C=C/c1ccccc1)CC(O)(c1ccccc1)C(F)(F)C(F)F (configuration not stated)
  A: 9	B: 1	C: ?	D: 66*	E: 3	F: 0
34	Cc1ccc(N(CC(=O)NC2CCCCC2)C(=O)CNC(=O)c2cccs2)cc1
  A: .	B: 10	C: 14	D: -7	E: 2	F: 0
35	CC(=O)N(c1ccccc1C)C1CCCC1
  A: -5	B: -7	C: 23	D: -4	E: -3	F: 1
36	CC(=O)N(C1=C(Cl)C(=O)c2ccccc2C1=O)C1CCCCC1
  A: 6	B: -46	C: 8	D: 55*	E: -6	F: 7
37	Cc1ccc(C)c(S(=O)(=O)Nc2ccc3scnc3c2)c1
  A: 158*	B: -1	C: .	D: .	E: .	F: 2
38	Cc1ccc(C)c(S(=O)(=O)Nc2ccc3[nH]c(=O)[nH]c3c2)c1
  A: .	B: -23	C: -8	D: -9	E: -1	F: 1
39	COc1ccc(C(=O)/C=C/C(=O)N(CC(=O)NC2CCCCC2)Cc2ccccc2OC)c(O)c1
  A: .	B: .	C: ?	D: ?	E: -5	F: .
40	COc1ccc(C(=O)/C=C/C(=O)N(CC(=O)NC2CCCCC2)Cc2ccccc2)c(O)c1
  A: .	B: .	C: 100*	D: 83*	E: -5	F: .
41	COc1ccc(C(=O)/C=C/C(=O)N(CC(=O)NC2CCCCC2)CC2CCCO2)c(O)c1 (configuration not stated)
  A: .	B: .	C: 104*	D: 56*	E: -5	F: .
42	CCCCN(C)c1c(C)nc2ccc(C(=O)NCc3ccc(OC)cc3)cn12
  A: -4	B: 0	C: 21	D: -3	E: 0	F: 0
43	Cc1cc(C)cc(NS(=O)(=O)c2ccc(NC(=S)NC(=O)c3cccs3)cc2)c1
  A: 133*	B: -6	C: 39	D: .	E: .	F: 2
44	COc1cc(NS(=O)(=O)c2ccc(NC(=S)NC(=O)c3cccs3)cc2)nc(OC)n1
  A: .	B: .	C: 1	D: -1	E: 0	F: .
45	Cc1c(S(=O)(=O)c2ccccn2)c(N)n(Cc2ccccc2Cl)c1C
  A: .	B: .	C: -18	D: 2	E: 0	F: .

# Looked up above:
# Reading for no. 37 in UUG fidelity: -1
# Reading for no. 41 in EWS-Fli inh: 56*
